These results are taken from ChEMBL document CHEMBL4028852, “Design of a Chemical Probe for the Bromodomain and Plant Homeodomain Finger-Containing (BRPF) Family of Proteins” (J Med Chem, 2017).

Chains of the proteins cited; added tags and fusions are not shown.
UniProt Q9H8M2, whole entry: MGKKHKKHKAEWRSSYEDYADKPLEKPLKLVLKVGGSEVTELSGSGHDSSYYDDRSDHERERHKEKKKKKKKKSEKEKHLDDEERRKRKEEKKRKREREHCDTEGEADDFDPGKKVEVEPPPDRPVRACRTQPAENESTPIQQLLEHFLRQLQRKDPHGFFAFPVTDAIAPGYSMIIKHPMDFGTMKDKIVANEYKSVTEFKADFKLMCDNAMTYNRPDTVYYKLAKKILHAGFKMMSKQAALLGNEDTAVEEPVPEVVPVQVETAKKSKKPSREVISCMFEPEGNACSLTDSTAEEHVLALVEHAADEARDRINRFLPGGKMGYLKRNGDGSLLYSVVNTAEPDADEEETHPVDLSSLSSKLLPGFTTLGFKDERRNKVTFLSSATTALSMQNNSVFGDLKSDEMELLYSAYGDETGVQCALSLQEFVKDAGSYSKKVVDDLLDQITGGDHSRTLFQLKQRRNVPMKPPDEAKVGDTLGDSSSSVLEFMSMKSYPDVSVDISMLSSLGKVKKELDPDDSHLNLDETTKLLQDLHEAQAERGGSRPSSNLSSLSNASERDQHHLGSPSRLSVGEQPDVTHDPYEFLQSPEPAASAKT

Experiment [1] has as its target T1, Peregrin (Homo sapiens) (UniProt P55201).
T1 sequence (whole entry): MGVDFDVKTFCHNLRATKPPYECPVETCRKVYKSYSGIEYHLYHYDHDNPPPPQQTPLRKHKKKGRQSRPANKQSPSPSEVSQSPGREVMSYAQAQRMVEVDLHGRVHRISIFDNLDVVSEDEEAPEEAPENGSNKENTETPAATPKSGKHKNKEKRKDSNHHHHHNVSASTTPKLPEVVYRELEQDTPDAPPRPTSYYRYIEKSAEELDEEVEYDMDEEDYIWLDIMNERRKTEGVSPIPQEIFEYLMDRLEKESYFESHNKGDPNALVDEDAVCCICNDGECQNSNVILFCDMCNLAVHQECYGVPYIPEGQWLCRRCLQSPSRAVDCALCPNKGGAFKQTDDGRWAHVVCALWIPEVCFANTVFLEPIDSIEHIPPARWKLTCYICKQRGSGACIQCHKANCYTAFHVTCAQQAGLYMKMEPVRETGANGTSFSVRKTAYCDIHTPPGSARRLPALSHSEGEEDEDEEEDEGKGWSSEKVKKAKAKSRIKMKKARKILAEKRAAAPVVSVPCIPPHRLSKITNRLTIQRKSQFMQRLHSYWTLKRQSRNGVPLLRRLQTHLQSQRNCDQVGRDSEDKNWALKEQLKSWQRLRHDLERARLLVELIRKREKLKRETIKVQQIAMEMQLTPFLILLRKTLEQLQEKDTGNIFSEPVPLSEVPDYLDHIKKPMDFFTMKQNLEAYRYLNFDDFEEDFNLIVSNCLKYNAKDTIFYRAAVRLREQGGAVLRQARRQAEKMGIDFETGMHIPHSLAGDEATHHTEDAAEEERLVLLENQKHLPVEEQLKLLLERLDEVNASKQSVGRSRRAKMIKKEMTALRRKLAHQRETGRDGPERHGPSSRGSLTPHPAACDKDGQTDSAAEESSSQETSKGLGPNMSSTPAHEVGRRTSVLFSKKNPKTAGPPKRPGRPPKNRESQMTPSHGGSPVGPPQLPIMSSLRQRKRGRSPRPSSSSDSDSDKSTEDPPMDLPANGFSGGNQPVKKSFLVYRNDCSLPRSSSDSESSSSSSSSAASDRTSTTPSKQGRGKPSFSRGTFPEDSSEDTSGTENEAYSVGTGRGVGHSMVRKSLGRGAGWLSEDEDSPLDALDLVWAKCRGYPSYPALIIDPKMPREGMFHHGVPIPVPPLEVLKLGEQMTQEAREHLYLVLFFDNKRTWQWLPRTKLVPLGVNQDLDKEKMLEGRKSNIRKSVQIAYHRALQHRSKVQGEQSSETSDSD

For experiment [2], the target named is T2, Bromodomain-containing protein 7 (Homo sapiens, UniProt Q9NPI1).
T2 sequence (Q9NPI1 whole entry): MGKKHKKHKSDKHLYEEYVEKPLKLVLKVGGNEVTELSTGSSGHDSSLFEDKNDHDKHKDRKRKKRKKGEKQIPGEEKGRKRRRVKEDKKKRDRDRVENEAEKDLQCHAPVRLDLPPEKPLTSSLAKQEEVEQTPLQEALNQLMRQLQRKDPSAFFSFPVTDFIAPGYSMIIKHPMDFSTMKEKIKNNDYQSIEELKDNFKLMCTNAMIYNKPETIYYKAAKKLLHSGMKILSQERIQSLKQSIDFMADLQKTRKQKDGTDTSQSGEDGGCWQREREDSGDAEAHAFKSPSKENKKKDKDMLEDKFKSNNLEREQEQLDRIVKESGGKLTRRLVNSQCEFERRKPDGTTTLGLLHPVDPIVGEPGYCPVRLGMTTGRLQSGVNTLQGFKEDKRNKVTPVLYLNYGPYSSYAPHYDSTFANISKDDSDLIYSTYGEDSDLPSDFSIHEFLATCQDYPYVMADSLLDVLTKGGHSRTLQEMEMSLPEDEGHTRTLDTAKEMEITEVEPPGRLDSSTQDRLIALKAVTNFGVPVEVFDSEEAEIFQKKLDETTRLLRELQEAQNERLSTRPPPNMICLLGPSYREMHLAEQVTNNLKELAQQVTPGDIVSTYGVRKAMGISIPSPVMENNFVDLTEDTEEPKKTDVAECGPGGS
In words: Inhibition of human BRD7 (125 to 254 residues) expressed in Escherichia coli BL21 after 1 hr by BROMOscan assay.

Experiment [3] has as its target T3, Bromodomain and PHD finger-containing protein 3 (Homo sapiens, UniProt Q9ULD4).
T3 sequence (Q9ULD4 whole entry): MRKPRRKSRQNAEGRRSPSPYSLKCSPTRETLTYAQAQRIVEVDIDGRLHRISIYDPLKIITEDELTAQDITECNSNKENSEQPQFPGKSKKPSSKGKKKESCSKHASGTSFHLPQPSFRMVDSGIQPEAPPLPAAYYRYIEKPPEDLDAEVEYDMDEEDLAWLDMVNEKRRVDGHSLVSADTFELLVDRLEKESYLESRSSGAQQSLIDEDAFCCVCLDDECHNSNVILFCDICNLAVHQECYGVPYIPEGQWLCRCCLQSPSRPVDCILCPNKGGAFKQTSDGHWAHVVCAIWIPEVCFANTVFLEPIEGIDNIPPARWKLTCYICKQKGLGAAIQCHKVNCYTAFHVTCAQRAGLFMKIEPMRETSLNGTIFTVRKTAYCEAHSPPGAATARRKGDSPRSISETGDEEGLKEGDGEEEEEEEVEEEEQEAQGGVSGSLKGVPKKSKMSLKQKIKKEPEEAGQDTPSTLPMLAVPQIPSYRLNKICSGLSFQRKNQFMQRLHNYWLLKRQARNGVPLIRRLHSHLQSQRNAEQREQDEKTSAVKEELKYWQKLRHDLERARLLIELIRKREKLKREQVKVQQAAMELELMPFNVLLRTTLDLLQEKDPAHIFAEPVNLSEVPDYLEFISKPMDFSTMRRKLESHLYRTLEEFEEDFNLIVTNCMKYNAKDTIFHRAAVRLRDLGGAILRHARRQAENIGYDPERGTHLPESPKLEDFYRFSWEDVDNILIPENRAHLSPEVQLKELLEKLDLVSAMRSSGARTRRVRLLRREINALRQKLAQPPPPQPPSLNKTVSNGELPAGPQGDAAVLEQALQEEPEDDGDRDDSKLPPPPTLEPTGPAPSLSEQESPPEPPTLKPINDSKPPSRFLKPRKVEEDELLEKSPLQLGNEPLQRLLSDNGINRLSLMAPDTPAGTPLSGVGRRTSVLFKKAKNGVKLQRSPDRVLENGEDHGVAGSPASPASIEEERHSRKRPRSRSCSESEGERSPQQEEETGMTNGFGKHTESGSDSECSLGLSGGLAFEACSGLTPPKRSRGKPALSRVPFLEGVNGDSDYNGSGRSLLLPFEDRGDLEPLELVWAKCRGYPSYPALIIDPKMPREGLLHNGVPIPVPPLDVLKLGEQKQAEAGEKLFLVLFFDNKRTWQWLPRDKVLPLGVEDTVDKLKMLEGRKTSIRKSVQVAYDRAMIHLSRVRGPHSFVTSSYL
In words: Inhibition of human BRPF3 (588 to 701 residues) expressed in Escherichia coli BL21 after 1 hr by BROMOscan assay.

Experiment [4] deals with T3, Bromodomain and PHD finger-containing protein 3. In words: Inhibition of His-tagged BRPF3 (unknown origin) using [H-YSGRGKacGGKacGLGKacGGAKacRHRK(Biotin)-OH peptide as substrate by alphaScreen assay.
The target in experiment [5] is Bromodomain-containing protein 9 (Homo sapiens, UniProt Q9H8M2). To be noted: 10 uM.

On to `CCOc1cc(C#N)ccc1S(=O)(=O)Nc1cc2cc(C)c(=O)n(C)c2cc1OC`, for which the ΔTm in experiment [1] is 9.5 °C.
In the case of `Cn1c(=O)ccc2cc(NS(=O)(=O)c3ccc(C#N)cc3)c(F)cc21`, the ΔTm in experiment [1] came to 3.8 °C.
For `COc1cc(C#N)ccc1S(=O)(=O)Nc1ccc2c(c1)cc(C)c(=O)n2C`, the IC50 in experiment [2] was 140 nM; in experiment [3], 140 nM; in experiment [4], 1010 nM.
As for `COc1cc2c(cc1NS(=O)(=O)c1ccccc1OC)cc(C)c(=O)n2C`, the ΔTm in experiment [1] was determined as 11 °C.
Consider `Cn1c(=O)ccc2cc(S(=O)(=O)Nc3cccc(C#N)c3)ccc21`, for which the ΔTm in experiment [1] was found to be 2.3 °C.
Consider `Cn1c(=O)ccc2cc(S(=O)(=O)Nc3ccccc3C#N)ccc21`, for which the ΔTm in experiment [1] amounted to 2.6 °C; in experiment [5], 3.9 °C.
For `COc1cc2c(cc1NS(=O)(=O)c1ccc(C#N)cc1C)cc(C)c(=O)n2C`, in experiment [1], the ΔTm turned out to be 9.9 °C.
For the molecule `Cc1cc2cc(NS(=O)(=O)c3ccc(C#N)cc3)cc(F)c2n(C)c1=O`, the ΔTm in experiment [1] turned out to be 7.1 °C.
`Cn1c(=O)ccc2c(F)c(NS(=O)(=O)c3ccc(C#N)cc3)ccc21`: the ΔTm in experiment [1] came out at 2.7 °C.
